Consider two molecules from US9868720B2 (Genentech, Inc., priority 2013, dated 2018).

The chains behind the UniProt entries cited, without tags or fusion partners. Residues count along the entry.
UniProt Q12852, 1-520: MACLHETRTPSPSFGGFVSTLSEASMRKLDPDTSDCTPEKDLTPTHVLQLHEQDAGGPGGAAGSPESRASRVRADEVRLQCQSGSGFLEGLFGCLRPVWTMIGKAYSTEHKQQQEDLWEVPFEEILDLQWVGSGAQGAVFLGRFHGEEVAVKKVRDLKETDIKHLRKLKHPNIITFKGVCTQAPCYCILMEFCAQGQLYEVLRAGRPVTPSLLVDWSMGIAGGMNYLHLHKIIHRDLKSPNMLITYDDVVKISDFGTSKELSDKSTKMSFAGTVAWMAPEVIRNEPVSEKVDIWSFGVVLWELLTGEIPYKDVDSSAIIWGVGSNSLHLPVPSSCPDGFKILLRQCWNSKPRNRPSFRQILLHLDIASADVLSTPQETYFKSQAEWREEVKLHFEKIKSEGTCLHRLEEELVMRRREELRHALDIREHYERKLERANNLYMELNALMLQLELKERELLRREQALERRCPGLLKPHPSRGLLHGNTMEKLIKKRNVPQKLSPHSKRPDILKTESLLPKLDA

As a reminder, the pKi is the Ki on a negative log10 scale, so that one unit is a factor of ten.

The target of this experiment is DLK kinase (N-terminally GST-tagged DLK, catalytic domain amino acid 1-520) (Homo sapiens (Human), UniProt Q12852). The experiment is described as follows: DLK TR-FRET assay. Type of experiment: biochemical. As to conditions: 30 μM ATP, MKK4 K131M substrate, read-out: DLK HTRF (Ki). On the procedure: DLK TR-FRET assay: DLK kinase reactions (20 μL) containing 5 nM N-terminally GST-tagged DLK (catalytic domain amino acid 1-520) (Carna Bioscience), 40 nM N-terminally HIS-tagged MKK4 K131M substrate, and 30 μM ATP in kinase reaction buffer (50 mM HEPES, pH 7.5, 0.01% Triton X-100, 0.01% Bovine γ-Globulins, 2 mM DTT, 10 mM MgCl2 and 1 mM EGTA), and testing compound 1:3 serial diluted starting at 20 uM were incubated at ambient temperature for 60 minutes in 384 well OptiPlate (Perkin Elmer). To quench kinase reactions and detect phosphorylated MKK4, 15 μL of TR-FRET antibody mixture containing 2 nM anti-phosphorylated MKK4 labeled with Europium cryptate (Cisbio) and 23 nM anti-HIS labeled with D2 (Cisbio) in detection buffer (25 mM Tris pH 7.5, 100 mM NaCl, 100 mM EDTA, 0.01% Tween-20, and 200 mM KF) was added to the reaction mixture. The detection mixture was incubated for 3 hours at ambient temperature and the TR-FRET was detected with an EnVision multilabel plate reader (Perkin-Elmer) using the LANCE/DELFIA Dual Enh label from Perkin-Elmer (excitation filter: UV2 (TRF) 320 and emission filters: APC 665 and Europium 615).

pKi: −log10 of the molar value.

Regarding `FC1(F)CCN(c2nc(Nc3cc(C(F)(F)F)ccn3)cc(C3CCNCC3)n2)C1` [Example 92, [2-(3,3-Difluoro-pyrrolidin-din-1-yl)-6-piperidin-4-yl-pyrimidin-4-yl]-(4-tri-fluoromethyl-pyridin-2-yl)-amine], the negative-log Ki (pKi) was 8.61. For the molecule `N#CCC(=O)N1CCC(c2cc(Nc3cc(C(F)(F)F)ccn3)nc(N3CCCC3)n2)CC1` [Example 161, 3-Oxo-3-{4-[2-pyrrolidin-1-yl-6-(4-trifluoromethyl-pyridin-2-ylamino)-pyrimidin-4-yl]-piperidin-1-yl}-propionitrile], the pKi is 7.82.
